From patent US20230339970A1, “CASEIN KINASE 1 DELTA MODULATORS” (priority 2020, published 2023)
Read-outs that look alike come from different tables or passages of the source.

The chains behind the UniProt entries cited, without tags or fusion partners. Where a name states a change or a piece, a line headed by the entry shows the natural chain unless it says otherwise.
UniProt P48730: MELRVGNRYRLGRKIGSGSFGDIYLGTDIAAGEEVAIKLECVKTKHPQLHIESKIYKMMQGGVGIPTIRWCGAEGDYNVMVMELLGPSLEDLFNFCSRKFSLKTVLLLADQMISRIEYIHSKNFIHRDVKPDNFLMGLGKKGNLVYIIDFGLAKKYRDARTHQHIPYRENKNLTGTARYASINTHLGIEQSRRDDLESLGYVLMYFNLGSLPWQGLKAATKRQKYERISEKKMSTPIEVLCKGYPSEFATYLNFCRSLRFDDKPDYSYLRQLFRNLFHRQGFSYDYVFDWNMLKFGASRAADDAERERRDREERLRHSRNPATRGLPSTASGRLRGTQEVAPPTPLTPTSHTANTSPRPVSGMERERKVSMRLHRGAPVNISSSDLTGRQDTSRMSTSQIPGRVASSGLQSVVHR

What was measured:
human CSNK1D = molecular target: T1, human CSNK1D (Homo sapiens, UniProt P48730); test: Whole Cell nBRET CSNK1D Binding Assay
T1 construct: expressed in transfected cells

[1] = molecular target: T2, human recombinant GST cleaved CSNK1D (Homo sapiens, UniProt P48730); test: Purified Enzyme Assay (ADP-Glo CSNK1D Kinase Assay); assay type: biochemical; settings: 2 nM CSNK1D, peptide substrate 150 μM, ATP 20 μM, 45 minutes at room temperature
T2 construct: GST (cleaved yes); purchased University of Dundee clone DU 19064
Method: In this assay, CSNK1D phosphorylates a substrate peptide PLSRTL-pS-VASLPGL in the presence of ATP. […] This assay monitors CSNK1D kinase activity by measuring the amount of ADP produced in the assay.
The substrate mix is added to each well of a low volume, 384-well, white opaque plate. Test compounds were diluted in HBSS and added in a dose-response to the plate.
The total volume of each reaction is 5 ul (2 μL of substrate mix, 1 μL of diluted compounds, and 2 μL of human recombinant CSNK1D). The plates are incubated for 45 minutes at room temperature.
ADP was quantified using the ADP-Glo™ Kinase Assay. ADP-Glo Reagent (5 μL) was added to each well. After a 1 hour incubation at room temperature, Kinase Detection Reagent (10 μL) was added to each well and incubated for 30 minutes. […] The raw data from the Envision is used to calculate percent activity.

[2] = ADP-Glo ™ CSNK1D Kinase Assay IC50 (μM)

Structure (SMILES) | IC50 (human CSNK1D) [nM] | IC50 ([1]; read-out: ADP-Glo ™ CSNK1D Kinase Assay IC50) [µM] | IC50 [1, 2] [µM]
[2H]C([2H])([2H])C1(C([2H])([2H])[2H])Cn2nc(-c3ccc(F)cn3)c(-c3ccnc4[nH]ncc34)c2CO1 [Example 142, 2-(5-Fluoropyridin-2-yl)-6,6-bis(methyl-d3)-3-(1H-pyrazolo[3,4-b]pyridin-4-yl)-6,7-dihydro-4H-pyrazolo[5,1-c][1,4]oxazine] | 70 | 0.004 | –
[2H]C1([2H])n2nc(-c3ccc(F)cn3)c(-c3ccnc4[nH]ncc34)c2COC1(C)C [Example 143, 2-(5-Fluoropyridin-2-yl)-6,6-dimethyl-3-(1H-pyrazolo[3,4-b]pyridin-4-yl)-6,7-dihydro-4H-pyrazolo[5,1-c][1,4]oxazine-7,7-d2] | 38 | – | 0.005
CC1(C)Cn2nc(-c3ccc(F)cn3)c(-c3ccnc4[nH]ncc34)c2CO1 [Example 150, 2-(5-Fluoropyridin-2-yl)-6,6-dimethyl-3-(1H-pyrazolo[3,4-b]pyridin-4-yl)-6,7-dihydro-4H-pyrazolo[5,1-c][1,4]oxazine] | 58 | – | 0.002
[2H]C1([2H])OC(C)(C)Cn2nc(-c3ccc(F)cn3)c(-c3ccnc4[nH]ncc34)c21 [Example 151, 2-(5-Fluoropyridin-2-yl)-6,6-dimethyl-3-(1H-pyrazolo[3,4-b]pyridin-4-yl)-6,7-dihydro-4H-pyrazolo[5,1-c][1,4]oxazine-4,4-d2] | 42 | – | 0.003
[2H]C1([2H])OC(C([2H])([2H])[2H])(C([2H])([2H])[2H])C([2H])([2H])n2nc(-c3ccc(F)cn3)c(-c3ccnc4[nH]ncc34)c21 [Example 411, 2-(5-Fluoropyridin-2-yl)-6,6-bis(methyl-d3)-3-(1H-pyrazolo[3,4-b]pyridin-4-yl)-6,7-dihydro-4H-pyrazolo[5,1-c][1,4]oxazine-4,4,7,7-d4] | 40 | – | 0.003
